{"source": "patent US7417124B2", "about": "“Antibodies specific for phosphorylation sites and screening methods using the same antibodies” (Zeria Pharmaceutical Co., Ltd., priority 2003, dated 2008)", "system": "phosphorylation in the linker regions of Smad proteins", "experiment": "Smad linker region phosphorylation in TGF-β-treated myofibroblasts, immunoprecipitation and immunoblotting with phosphorylation-specific antibodies", "type": "cell-based, rat", "data": [{"smiles": "O=[N+]([O-])c1ccc(-c2nc(-c3ccncc3)c(-c3ccc(F)cc3)[nH]2)cc1", "note": "[PD169316]", "values": [{"measurement": "phosphorylation in the linker regions of Smad proteins", "value": "inhibited"}]}]}
